{"source": "PubChem BioAssay AID1956", "about": "(SRMLSC, 2009)", "note": "The entries are a selection whose mix differs from that of the whole data set. Some salts or complexes appear as unconnected parts, following the source record. Activity calls are given as the source filed them. No stated cut-off is given here; in the data, active means maximum fold increase above about 1.5; inconclusive means no clear call, values can overlap the other calls; inactive means below that; tested in PC3 cells.", "data": [{"experiment": "enhancers of HSV replication in host cells, fold increase, host cell viability (AID 1956)", "conditions": "HSV replication augmentation in cells; at 3.125 µM", "values": [{"molecule": "O=C(OCCCN1CCCC1)C(O)(c1ccccc1)C1CCCCC1", "note": "(configuration not stated)", "maximum fold increase": "inactive"}, {"molecule": "COc1ccccc1OP(C)(=O)Nc1c(C)n(C)n(-c2ccccc2)c1=O", "note": "(configuration not stated)", "maximum fold increase": "inactive"}, {"molecule": "CC(=O)N1C2C3N(C(C)=O)C1C1N(C(C)=O)C(C(N1C(C)=O)N3C(C)=O)N2C(C)=O", "maximum fold increase": "inactive"}, {"molecule": "O=[N+]([O-])c1cccc2n[nH]nc12", "maximum fold increase": "inactive"}, {"molecule": "O=[N+]([O-])c1cc([N+](=O)[O-])c(CCNc2ccccc2)c([N+](=O)[O-])c1", "maximum fold increase": "inactive"}, {"molecule": "CCc1nc2c(n1)c1c(non1O)c1c2no[n+]1[O-]", "maximum fold increase": "inactive"}, {"molecule": "CCc1ccc(OP(C)(=O)Nc2cccnc2)cc1", "note": "(configuration not stated)", "maximum fold increase": "inactive"}, {"molecule": "CP(=O)(Oc1ccccc1)N1CCOC1=O", "note": "(configuration not stated)", "maximum fold increase": "inactive"}, {"molecule": "Cc1ccc(NP(=O)(Oc2ccccc2)Oc2ccccc2)nc1", "maximum fold increase": "inactive"}, {"molecule": "O=[N+]([O-])c1cc([N+](=O)[O-])c(Nc2ccccn2)c([N+](=O)[O-])c1", "maximum fold increase": "inactive"}, {"molecule": "CC(C)CC(=O)NC(Sc1ccc(Cl)cc1)C(Cl)(Cl)Cl", "note": "(configuration not stated)", "maximum fold increase": "inactive"}, {"molecule": "Nc1cc(N)c2nonc2c1[N+](=O)[O-]", "maximum fold increase": "inactive"}, {"molecule": "Cc1c(NP(C)(=O)Oc2ccc(C(C)C)cc2)c(=O)n(-c2ccccc2)n1C", "note": "(configuration not stated)", "maximum fold increase": "inactive"}, {"molecule": "Cc1c2non([O-])c-2c(C)[n+](=O)[n+]1[O-]", "maximum fold increase": "inactive"}, {"molecule": "O=C(NC(Sc1ccncn1)C(Cl)(Cl)Cl)c1ccccc1", "note": "(configuration not stated)", "maximum fold increase": "inactive"}, {"molecule": "Oc1ccccc1CNc1ccccn1", "maximum fold increase": "inactive"}, {"molecule": "COc1ccccc1OP(C)(=O)Nc1ccc(C)cc1C", "note": "(configuration not stated)", "maximum fold increase": "inactive"}, {"molecule": "CP(=O)(Nc1ccccn1)Oc1ccccc1", "note": "(configuration not stated)", "maximum fold increase": "inactive"}, {"molecule": "CCc1ccc(OP(C)(=O)O)cc1", "maximum fold increase": "inactive"}, {"molecule": "NC(=O)c1cc([N+](=O)[O-])cc([N+](=O)[O-])c1N", "maximum fold increase": "inactive"}, {"molecule": "Cc1ccc(N/C(=N/P(=O)(N2CCOCC2)N2CCOCC2)N2CCOCC2)cc1", "maximum fold increase": "inactive"}, {"molecule": "COc1ccccc1OP(C)(=O)Nc1ccc(Br)cc1", "note": "(configuration not stated)", "maximum fold increase": "inactive"}, {"molecule": "Cc1ccc(OP(=O)(Nc2nccs2)Oc2ccc(C)cc2)cc1", "maximum fold increase": "inactive"}, {"molecule": "COc1ccc(OP(C)(=O)Nc2ccccn2)cc1", "note": "(configuration not stated)", "maximum fold increase": "inactive"}, {"molecule": "COc1ccccc1OP(=O)(Nc1ccc(C)cn1)Oc1ccccc1OC", "maximum fold increase": "inactive"}, {"molecule": "CN(C)CCOC(=O)C(O)(c1ccccc1)C1CCCC1", "note": "(configuration not stated)", "maximum fold increase": "inactive"}, {"molecule": "Clc1ccc(Cl)c(NC2=NCC(CBr)S2)c1", "note": "(configuration not stated)", "maximum fold increase": "inactive"}, {"molecule": "CN1CCCC(OC(=O)C(c2ccccc2)c2ccccc2)C1", "note": "(configuration not stated)", "maximum fold increase": "inactive"}, {"molecule": "Cc1nc2ccc3ccccc3c2o1.O=[N+]([O-])c1cc([N+](=O)[O-])c(O)c([N+](=O)[O-])c1", "maximum fold increase": "inactive"}, {"molecule": "CCN(N=Nc1nonc1N)c1nonc1N", "maximum fold increase": "inactive"}, {"molecule": "CP(=O)(OCCOc1ccccc1)OCCOc1ccccc1", "maximum fold increase": "inactive"}, {"molecule": "CP(=O)(Nc1ccc(Cl)cc1Cl)Oc1ccccc1", "note": "(configuration not stated)", "maximum fold increase": "inactive"}, {"molecule": "Nc1cccc2ccc([As](=O)(O)O)cc12", "maximum fold increase": "inactive"}, {"molecule": "O=C(O)c1ccccc1[As](=O)(O)O", "maximum fold increase": "inactive"}, {"molecule": "CC(=O)Nc1ccc([As](=O)(O)O)cc1", "maximum fold increase": "inactive"}, {"molecule": "Cc1cc(C)cc(OP(C)(=O)Nc2cccc(C(F)(F)F)c2)c1", "note": "(configuration not stated)", "maximum fold increase": "inactive"}, {"molecule": "O=P(Nc1nc2ccc(Cl)cc2s1)(c1ccccc1)c1ccccc1", "maximum fold increase": "inactive"}, {"molecule": "CN(C(=O)Cc1ccc(Cl)c(Cl)c1)[C@H]1CCCC[C@@H]1N1CCCC1", "maximum fold increase": "inactive"}, {"molecule": "Cc1ccc(NP(=O)(Oc2ccccc2F)Oc2ccccc2F)nc1", "maximum fold increase": "inactive"}, {"molecule": "COc1ccccc1OP(C)(=O)Nc1ccc(C)c(C)c1", "note": "(configuration not stated)", "maximum fold increase": "inactive"}, {"molecule": "CCOP(=O)(Nc1ccccc1)OCC", "maximum fold increase": "inactive"}, {"molecule": "Cc1cc(SC(NC(=O)c2ccc(F)cc2)C(Cl)(Cl)Cl)ncn1", "note": "(configuration not stated)", "maximum fold increase": "inactive"}, {"molecule": "COc1ccc(OP(C)(=O)Nc2ccccc2Br)cc1", "note": "(configuration not stated)", "maximum fold increase": "inactive"}, {"molecule": "CC(=O)NC(SC(=S)N(CC(C)C)CC(C)C)C(Cl)(Cl)Cl", "note": "(configuration not stated)", "maximum fold increase": "inactive"}, {"molecule": "Cc1ccc(OP(=O)(Nc2ccccn2)Oc2ccc(C)cc2)cc1", "maximum fold increase": "inactive"}, {"molecule": "COC(=O)c1cc2c(s1)N=C(c1ccccc1)N(C)P2(=O)N1CCOCC1", "note": "(configuration not stated)", "maximum fold increase": "inactive"}, {"molecule": "CCC(=O)N1C2C3N(C(=O)CC)C1C1N(C(=O)CC)C(C(N1C(=O)CC)N3C(=O)CC)N2C(=O)CC", "maximum fold increase": "inactive"}, {"molecule": "CCN(CC)CCCOC(=O)C(O)(c1ccccc1)C1CCCCC1", "note": "(configuration not stated)", "maximum fold increase": "inactive"}, {"molecule": "CP(=O)(Nc1ccccc1)Oc1ccc(F)cc1", "note": "(configuration not stated)", "maximum fold increase": "inactive"}, {"molecule": "CN(C)C(=O)Oc1noc2ccccc12", "maximum fold increase": "inactive"}, {"molecule": "O=c1c2cc([N+](=O)[O-])ccc2[nH]c2c([N+](=O)[O-])cc([N+](=O)[O-])cc12", "maximum fold increase": "inactive"}, {"molecule": "CCCCCOc1ccc(NP(C)(=O)Oc2ccc(Cl)cc2Cl)cc1", "note": "(configuration not stated)", "maximum fold increase": "inactive"}, {"molecule": "Cc1ccccc1OP(=O)(Nc1ccccn1)Oc1ccccc1C", "maximum fold increase": "inactive"}, {"molecule": "O=C(NC1CCS(=O)(=O)C1)NP(=S)(Oc1ccccc1)Oc1ccccc1", "note": "(configuration not stated)", "maximum fold increase": "inactive"}, {"molecule": "CCNC(=S)/N=C(\\N)N[N+](=O)[O-]", "maximum fold increase": "inactive"}, {"molecule": "Cc1ccc(NP(=O)(Oc2cccc(C)c2)Oc2cccc(C)c2)nc1", "maximum fold increase": "inactive"}, {"molecule": "CCOC(=O)NC(Sc1ccccc1)C(Cl)(Cl)Cl", "note": "(configuration not stated)", "maximum fold increase": "inactive"}, {"molecule": "c1ccc(-c2nn[nH]n2)c(-c2nn[nH]n2)c1", "maximum fold increase": "inactive"}, {"molecule": "CCOC(=O)c1ccc(NP(C)(=O)Oc2ccc(F)cc2)cc1", "note": "(configuration not stated)", "maximum fold increase": "inactive"}, {"molecule": "COc1ccc(OP(C)(=O)Nc2ccc(SC(F)(F)F)cc2)cc1", "note": "(configuration not stated)", "maximum fold increase": "inactive"}, {"molecule": "O=C(OC1CN2CCC1CC2)c1ccc([N+](=O)[O-])cc1", "note": "(configuration not stated)", "maximum fold increase": "inactive"}, {"molecule": "C[C@@H]1C=CCP(=O)(Oc2ccccc2)O1", "note": "(some centres not stated)", "maximum fold increase": "inactive"}, {"molecule": "C[C@H]1OP(=O)(Oc2ccccc2)C[C@@H]2O[C@@H]21", "note": "(some centres not stated)", "maximum fold increase": "inactive"}, {"molecule": "CC(=O)Nc1ccc(Oc2c([N+](=O)[O-])cc([N+](=O)[O-])cc2[N+](=O)[O-])cc1", "maximum fold increase": "inactive"}, {"molecule": "COc1ccc2c(c1O)-c1c(O)c(OC)cc3c1[C@H](C2)[N+](C)(C)CC3.O=[N+]([O-])c1cc([N+](=O)[O-])c([O-])c([N+](=O)[O-])c1[O-]", "maximum fold increase": "inactive"}, {"molecule": "CC(=O)Nc1ccc([As](=O)(O)O)c(O)c1", "maximum fold increase": "inactive"}, {"molecule": "CCOc1ccc(C2=NCC(CBr)S2)cc1", "note": "(configuration not stated)", "maximum fold increase": "inactive"}, {"molecule": "O=P1(Nc2nc3ccc(Cl)cc3s2)COc2ccccc2O1", "note": "(configuration not stated)", "maximum fold increase": "inactive"}, {"molecule": "CP(=O)(Nc1ccccc1F)Oc1ccccc1", "note": "(configuration not stated)", "maximum fold increase": "inactive"}, {"molecule": "CC(C)c1ccc(OP(C)(=O)Nc2ccc(SC(F)(F)F)cc2)cc1", "note": "(configuration not stated)", "maximum fold increase": "inactive"}, {"molecule": "CC(C)(C)C(=O)NC(Sc1ccccc1)C(Cl)(Cl)Cl", "note": "(configuration not stated)", "maximum fold increase": "inactive"}, {"molecule": "CP(=O)(Nc1ccc2c(c1)OCCO2)Oc1ccccc1", "note": "(configuration not stated)", "maximum fold increase": "inactive"}, {"molecule": "Cc1ccccc1NP(C)(=O)Nc1ccccc1C", "maximum fold increase": "inactive"}, {"molecule": "CP(=O)(Nc1ccc(SC(F)(F)F)cc1)Oc1ccc(F)cc1", "note": "(configuration not stated)", "maximum fold increase": "inactive"}, {"molecule": "O=P(Nc1nccs1)(c1ccccc1)c1ccccc1", "maximum fold increase": "inactive"}, {"molecule": "CC(C)C(=O)NC(Sc1ccccc1)C(Cl)(Cl)Cl", "note": "(configuration not stated)", "maximum fold increase": "inactive"}, {"molecule": "CCOP(C)(=S)SCC(=O)NC(C)(CC)C(=O)O", "note": "(configuration not stated)", "maximum fold increase": "inactive"}, {"molecule": "c1nnnn1CCn1cnnn1", "maximum fold increase": "inactive"}, {"molecule": "CC(=O)NC(SC(=S)N(C)C)C(Cl)(Cl)Cl", "note": "(configuration not stated)", "maximum fold increase": "inactive"}, {"molecule": "O=[N+]([O-])c1ccc(OP2(=O)COCCO2)cc1", "note": "(configuration not stated)", "maximum fold increase": "inactive"}, {"molecule": "O=[N+]([O-])c1ncn(CCn2cnc([N+](=O)[O-])n2)n1", "maximum fold increase": "inactive"}, {"molecule": "Cc1cc(-c2cccc3ccccc23)c(C)cn1.O=[N+]([O-])c1cc([N+](=O)[O-])c(O)c([N+](=O)[O-])c1", "maximum fold increase": "inactive"}, {"molecule": "O=[N+]([O-])c1cc([N+](=O)[O-])c(NCC2CCS(=O)(=O)C2)c([N+](=O)[O-])c1", "note": "(configuration not stated)", "maximum fold increase": "inactive"}, {"molecule": "O=[As](O)(c1ccccc1)c1ccc(O)cc1", "maximum fold increase": "inactive"}, {"molecule": "Nc1ccc([As](=O)(O)c2ccc([N+](=O)[O-])cc2)cc1", "maximum fold increase": "inactive"}, {"molecule": "O=C(OC1CN2CCC1CC2)c1cccc(Cl)c1", "note": "(configuration not stated)", "maximum fold increase": "inactive"}, {"molecule": "COc1ccc(OP(C)(=O)Nc2cccc(Br)c2)cc1", "note": "(configuration not stated)", "maximum fold increase": "inactive"}, {"molecule": "O=P(Nc1ccccn1)(c1ccc(Br)cc1)c1ccc(Br)cc1", "maximum fold increase": "inactive"}, {"molecule": "C[C@H]1OP(=O)(Oc2ccccc2)[C@H](O)[C@H](O)[C@H]1N=[N+]=[N-]", "note": "(some centres not stated)", "maximum fold increase": "inactive"}, {"molecule": "O=P(Nc1nc2ccccc2s1)(c1ccccc1)c1ccccc1", "maximum fold increase": "inactive"}, {"molecule": "CN(C)CCOC(=O)C(O)(c1ccccc1)C1CCCCC1", "note": "(configuration not stated)", "maximum fold increase": "inactive"}, {"molecule": "COc1ccc(NP(C)(=O)Oc2ccccc2OC)cc1", "note": "(configuration not stated)", "maximum fold increase": "inactive"}]}]}
